Assay results: ChEMBL document CHEMBL1153145, “Novel lead for potent inhibitors of breast cancer resistance protein (BCRP)” (Bioorg Med Chem Lett, 2010)

Chains of the proteins cited; added tags and fusions are not shown. Lines headed by an entry give the natural chain unless they say otherwise; changes in a name come on top.
UniProt Q9UNQ0: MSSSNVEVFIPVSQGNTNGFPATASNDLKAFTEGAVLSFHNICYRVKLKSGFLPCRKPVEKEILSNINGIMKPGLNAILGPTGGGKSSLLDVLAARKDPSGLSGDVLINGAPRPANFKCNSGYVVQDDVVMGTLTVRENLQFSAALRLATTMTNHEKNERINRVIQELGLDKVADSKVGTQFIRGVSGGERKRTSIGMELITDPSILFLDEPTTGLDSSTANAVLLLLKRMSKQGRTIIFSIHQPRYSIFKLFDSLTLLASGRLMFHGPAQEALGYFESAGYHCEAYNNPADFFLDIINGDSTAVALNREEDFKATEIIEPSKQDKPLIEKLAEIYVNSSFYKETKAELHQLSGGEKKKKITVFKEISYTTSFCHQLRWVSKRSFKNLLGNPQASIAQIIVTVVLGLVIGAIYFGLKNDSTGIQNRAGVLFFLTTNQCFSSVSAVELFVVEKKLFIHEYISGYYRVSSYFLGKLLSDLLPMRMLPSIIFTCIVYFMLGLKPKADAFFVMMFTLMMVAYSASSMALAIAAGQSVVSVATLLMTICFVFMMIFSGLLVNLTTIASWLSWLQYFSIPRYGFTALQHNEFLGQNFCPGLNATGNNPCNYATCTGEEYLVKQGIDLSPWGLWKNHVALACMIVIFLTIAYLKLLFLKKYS

Tests used:
[1] = biological target: T1, Broad substrate specificity ATP-binding cassette transporter ABCG2 (Homo sapiens, UniProt Q9UNQ0); assay: Inhibition of BCRP expressed in MDCK cells by pheophorbide A assay; assay type: cell-based
[2] = biological target: T1, Broad substrate specificity ATP-binding cassette transporter ABCG2; assay: Inhibition of BCRP expressed in MCF7 MX cells by Hoechst 33342 staining; assay type: cell-based

COc1cc2ncnc(Nc3ccc(F)c(Cl)c3)c2cc1OCCCN1CCOCC1 [GEFITINIB]
IC50 [1]: 1260 nM
IC50 [2]: 1100 nM
